The chains behind the UniProt entries cited, without tags or fusion partners. Where a name states a change or a piece, a line headed by the entry shows the natural chain unless it says otherwise. Residues count along the entry.
UniProt P24887: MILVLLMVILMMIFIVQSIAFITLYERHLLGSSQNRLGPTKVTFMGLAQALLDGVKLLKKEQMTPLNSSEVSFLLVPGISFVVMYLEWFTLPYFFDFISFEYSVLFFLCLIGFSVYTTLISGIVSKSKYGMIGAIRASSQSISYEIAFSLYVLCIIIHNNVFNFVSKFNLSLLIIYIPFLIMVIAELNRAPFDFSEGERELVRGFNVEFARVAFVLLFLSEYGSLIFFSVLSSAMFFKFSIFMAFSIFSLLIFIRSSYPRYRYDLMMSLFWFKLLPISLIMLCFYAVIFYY
UniProt Q93873, 31-482: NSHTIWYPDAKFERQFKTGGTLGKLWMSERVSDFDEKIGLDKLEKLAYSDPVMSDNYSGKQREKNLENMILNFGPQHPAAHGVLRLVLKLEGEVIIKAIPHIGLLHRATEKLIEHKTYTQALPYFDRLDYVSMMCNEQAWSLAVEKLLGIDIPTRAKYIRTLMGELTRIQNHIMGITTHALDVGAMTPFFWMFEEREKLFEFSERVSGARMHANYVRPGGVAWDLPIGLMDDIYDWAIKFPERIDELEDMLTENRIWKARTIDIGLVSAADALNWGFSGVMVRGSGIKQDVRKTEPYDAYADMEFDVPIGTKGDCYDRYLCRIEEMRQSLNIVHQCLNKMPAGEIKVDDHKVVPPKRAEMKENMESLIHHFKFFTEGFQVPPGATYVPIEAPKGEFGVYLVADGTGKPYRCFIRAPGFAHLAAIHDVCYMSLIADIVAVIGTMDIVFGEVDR
UniProt Q94360, 17-199: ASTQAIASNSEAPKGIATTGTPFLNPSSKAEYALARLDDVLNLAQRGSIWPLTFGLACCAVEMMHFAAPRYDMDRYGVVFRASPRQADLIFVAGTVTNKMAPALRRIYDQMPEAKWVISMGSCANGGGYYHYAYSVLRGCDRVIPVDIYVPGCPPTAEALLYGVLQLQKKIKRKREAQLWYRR
UniProt P03887, whole entry: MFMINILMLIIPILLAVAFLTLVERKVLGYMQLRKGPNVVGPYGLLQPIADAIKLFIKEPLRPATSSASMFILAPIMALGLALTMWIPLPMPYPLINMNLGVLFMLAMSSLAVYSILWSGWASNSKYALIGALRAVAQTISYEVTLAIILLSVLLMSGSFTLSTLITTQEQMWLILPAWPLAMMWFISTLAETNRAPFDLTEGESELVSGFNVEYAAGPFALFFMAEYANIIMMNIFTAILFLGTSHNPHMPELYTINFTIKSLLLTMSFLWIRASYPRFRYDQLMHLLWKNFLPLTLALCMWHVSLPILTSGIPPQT
UniProt P17694, 34-463: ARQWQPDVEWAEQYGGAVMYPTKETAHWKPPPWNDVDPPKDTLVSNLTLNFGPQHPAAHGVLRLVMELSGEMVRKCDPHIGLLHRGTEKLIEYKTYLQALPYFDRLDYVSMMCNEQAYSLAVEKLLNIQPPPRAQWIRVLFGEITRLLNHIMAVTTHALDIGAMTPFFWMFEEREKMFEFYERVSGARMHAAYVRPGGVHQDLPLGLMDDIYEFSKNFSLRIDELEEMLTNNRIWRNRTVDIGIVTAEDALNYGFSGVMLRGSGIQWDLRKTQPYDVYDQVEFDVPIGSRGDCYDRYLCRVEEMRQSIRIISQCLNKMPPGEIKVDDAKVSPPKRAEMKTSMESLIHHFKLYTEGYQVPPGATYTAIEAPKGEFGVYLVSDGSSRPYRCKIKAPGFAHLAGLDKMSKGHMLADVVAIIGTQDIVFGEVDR
UniProt P42026, 38-216: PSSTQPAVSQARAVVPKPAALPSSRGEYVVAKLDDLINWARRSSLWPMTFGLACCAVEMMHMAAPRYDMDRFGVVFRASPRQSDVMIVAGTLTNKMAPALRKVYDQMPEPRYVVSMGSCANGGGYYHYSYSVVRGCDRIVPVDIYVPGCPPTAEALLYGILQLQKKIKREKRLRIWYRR
UniProt P03888: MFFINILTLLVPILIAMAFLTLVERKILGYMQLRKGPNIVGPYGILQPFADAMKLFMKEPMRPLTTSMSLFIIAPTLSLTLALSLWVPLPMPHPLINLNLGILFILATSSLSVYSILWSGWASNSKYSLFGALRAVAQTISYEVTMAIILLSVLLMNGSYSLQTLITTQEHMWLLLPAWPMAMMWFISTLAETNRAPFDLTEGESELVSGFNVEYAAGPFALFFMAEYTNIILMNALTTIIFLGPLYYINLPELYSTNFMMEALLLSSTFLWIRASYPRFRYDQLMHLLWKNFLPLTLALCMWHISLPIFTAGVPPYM
UniProt Q91WD5, 34-463: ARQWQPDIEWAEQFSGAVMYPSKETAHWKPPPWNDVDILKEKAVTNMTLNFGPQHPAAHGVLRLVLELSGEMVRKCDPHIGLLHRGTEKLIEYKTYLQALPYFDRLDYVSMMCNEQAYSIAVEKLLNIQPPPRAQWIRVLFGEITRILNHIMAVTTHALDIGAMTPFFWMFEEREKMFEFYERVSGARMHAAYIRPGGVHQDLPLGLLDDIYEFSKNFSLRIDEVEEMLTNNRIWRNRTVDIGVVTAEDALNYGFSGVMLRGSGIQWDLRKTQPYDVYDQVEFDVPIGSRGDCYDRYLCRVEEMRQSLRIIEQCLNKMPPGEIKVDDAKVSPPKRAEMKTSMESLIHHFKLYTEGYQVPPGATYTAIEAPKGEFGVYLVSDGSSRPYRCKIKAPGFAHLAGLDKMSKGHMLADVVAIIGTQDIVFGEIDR
UniProt Q9DC70, 36-224: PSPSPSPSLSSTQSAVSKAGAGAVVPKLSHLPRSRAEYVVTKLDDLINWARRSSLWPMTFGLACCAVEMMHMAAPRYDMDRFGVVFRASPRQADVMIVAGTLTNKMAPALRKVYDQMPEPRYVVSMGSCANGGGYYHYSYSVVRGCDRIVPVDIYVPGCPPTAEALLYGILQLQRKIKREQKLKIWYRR

According to article PMC11079024, “Identification of a family of species-selective complex I inhibitors as potential anthelmintics” (Nature Communications, 2024):

Assays:
[1] = target: C. elegans (N2) complex I (NADH:ubiquinone oxidoreductase) (Caenorhabditis elegans, UniProt P24887+Q93873+Q94360); assay: biochemical; type: biochemical; details: for percent in vitro complex I activity relative to solvent control, single replicates: wild-type C. elegans, individual Rep1-Rep4; for percent (%) in vitro complex I activity relative to solvent control: wild-type C. elegans mitochondria, single replicate
L1 wild-type C. elegans = details: 50 μM; […]; worm motility 3 hours after the removal of KCN (endpoint); relative to DMSO controls; single biological replicate
[2] = target: B. taurus (heart) complex I (Bos taurus, UniProt P03887+P17694+P42026); type: biochemical; details: heart mitochondria
[3] = target: M. musculus (heart) complex I (Mus musculus, UniProt P03888+Q91WD5+Q9DC70); type: biochemical; details: mouse, heart mitochondria

| SMILES | percent in vitro complex I activity relative to solvent control, single replicates ([1]; 0.0001 µM) | percent in vitro complex I activity relative to solvent control, single replicates ([1]; 0.0005 µM) | percent in vitro complex I activity relative to solvent control, single replicates ([1]; 0.001 µM) | percent in vitro complex I activity relative to solvent control, single replicates ([1]; 0.0025 µM) | percent in vitro complex I activity relative to solvent control, single replicates ([1]; 0.005 µM) | percent in vitro complex I activity relative to solvent control, single replicates ([1]; 0.013 µM) | percent in vitro complex I activity relative to solvent control, single replicates ([1]; 0.025 µM) | percent in vitro complex I activity relative to solvent control, single replicates ([1]; 0.063 µM) | percent in vitro complex I activity relative to solvent control, single replicates ([1]; 0.125 µM) | percent in vitro complex I activity relative to solvent control, single replicates ([1]; 0.313 µM) | percent in vitro complex I activity relative to solvent control, single replicates ([1]; 0.625 µM) | B. taurus: C. elegans IC50 Fold Change (Complex I IC50 ~Fold Change) [2] | percent (%) in vitro complex I activity relative to solvent control ([1]; 0.125 µM) | percent (%) in vitro complex I activity relative to solvent control ([1]; 0.313 µM) | percent (%) in vitro complex I activity relative to solvent control ([1]; 3 µM) | percent (%) in vitro complex I activity relative to solvent control ([1]; 7.5 µM) | percent (%) in vitro complex I activity relative to solvent control ([1]; 15 µM) | percent (%) in vitro complex I activity relative to solvent control ([1]; 37.5 µM) | percent (%) in vitro complex I activity relative to solvent control ([1]; 75 µM) | M. musculus: C. elegans IC50 Fold Change [3] | also measured |
| --- | --- | --- | --- | --- | --- | --- | --- | --- | --- | --- | --- | --- | --- | --- | --- | --- | --- | --- | --- | --- | --- |
| Cc1nc2ccccc2n1Cc1ccc(Br)cc1 [Compound 5567167] | 88.215% and 85.236% and 76.019% | 93.838% and 79.218% and 84.363% | 88.775% and 83.959% and 79.175% | 67.494% and 94.472% and 77.284% and 79.707% | 85.403% and 80.690% and 74.072% | 76.208% and 68.182% and 65.377% | 58.176% and 57.929% and 65.135% | 31.234% and 36.053% and 38.082% | 19.945% and 22.520% and 28.782% | 9.323% and 12.635% and 16.701% | 3.544% and 2.727% and 3.100% | 6.5 | – | – | – | – | – | – | – | – | percent in vitro complex I activity relative to solvent control, single replicates ([1]; 1.5 µM): 1.938%; percent in vitro complex I activity relative to solvent control, single replicates ([1]; 3 µM): 2.450%; percent in vitro complex I activity relative to solvent control, single replicates ([1]; 7.5 µM): 0.671%; percent in vitro complex I activity relative to solvent control, single replicates ([1]; 75 µM): 3.643%; Relative Motility (L1 wild-type C. elegans): 0.100; Complex I IC50 ~Fold Change [2]: 6.5; IC50 Fold change [2]: 6.50 |
| Clc1ccccc1OCCCCn1cnc2ccccc21 [Compound 7925804] | 94.725% and 86.433% and 95.356% | 97.004% and 94.570% and 91.864% | 100.218% and 93.097% and 105.429% and 84.942% | 98.014% and 106.578% and 95.293% | 98.263% and 91.239% and 90.485% | 98.806% and 99.730% and 94.066% | 90.123% and 105.982% and 94.724% | 77.781% and 84.122% and 81.033% | 64.094% and 68.358% and 61.394% | 45.392% and 52.240% and 38.251% | 42.466% and 37.091% and 29.487% and 21.788% | 5 | – | – | – | – | – | – | – | – | percent in vitro complex I activity relative to solvent control, single replicates ([1]; 1.5 µM): 19.351% and 18.310% and 16.485% and 7.719%; percent in vitro complex I activity relative to solvent control, single replicates ([1]; 3 µM): 11.385% and 15.840% and 1.979% and 6.321%; percent in vitro complex I activity relative to solvent control, single replicates ([1]; 7.5 µM): 6.929% and 7.267% and 7.400% and 0.000%; percent in vitro complex I activity relative to solvent control, single replicates ([1]; 15 µM): 4.269% and 3.612% and 2.481% and 0.000%; percent in vitro complex I activity relative to solvent control, single replicates ([1]; 37.5 µM): 5.799% and 6.015% and 0.000%; percent in vitro complex I activity relative to solvent control, single replicates ([1]; 75 µM): 7.727% and 6.213% and 8.069% and 3.510%; Relative Motility (L1 wild-type C. elegans): 0.180; Complex I IC50 ~Fold Change [2]: 5; IC50 Fold change [2]: 5.00 |
| COc1cc2c(cc1OC)C(c1ccc(-c3ccc(Cl)c(Cl)c3)o1)=NCC2 [NPD3577] | – | – | – | – | – | – | – | – | – | – | – | 0.8 | 97.708% and 99.291% and 93.354% | 97.105% and 93.945% and 86.205% | 91.612% and 93.694% and 91.331% | 78.739% and 77.438% and 83.930% | 63.065% and 59.782% and 63.349% | 41.693% and 41.389% and 49.686% | 47.397% and 37.818% and 40.786% | 1.6 | percent (%) in vitro complex I activity relative to solvent control ([1]; 1.5 µM): 94.111% and 90.424% and 96.415% |
| COc1cc2c(cc1OC)C(/C=C/c1ccc(N(C)C)cc1)=NCC2 [NPD6303] | – | – | – | – | – | – | – | – | – | – | – | 2.8 | 87.998% and 93.858% | 86.077% and 96.329% | 88.910% and 97.542% | 63.062% and 70.811% | 33.771% and 49.973% and 56.558% | 10.655% and 12.339% and 24.560% | 11.807% and 4.397% and 17.534% | 2.9 | percent (%) in vitro complex I activity relative to solvent control ([1]; 0.625 µM): 108.371% and 107.823% |
| COc1cc2c(cc1OC)C(C(C)c1ccc(CC(C)C)cc1)=NCC2 (stereo not shown) [NPD10504] | – | – | – | – | – | – | – | – | – | – | – | 3.4 | 100.304% and 94.360% and 87.363% | 102.145% and 93.069% and 82.299% | 63.002% and 56.869% and 54.489% | 32.243% and 21.775% and 17.664% | 13.403% and 18.209% and 10.130% | 3.265% and 5.643% and 23.594% and 17.069% | 2.371% and 3.940% and 26.690% and 16.321% | 2.9 | percent (%) in vitro complex I activity relative to solvent control ([1]; 1.5 µM): 84.112% and 75.755% and 78.095% |

Where “and” joins values, the source holds several entries; their conditions need not be identical. Equal values may be shown once.
